Laboratory results taken from patent publication EP3010915B1 (priority 2013, dated 2014).

Test system: T-47D cells
Assay: Cell viability assay (ATPlite)
Format: cell-based
Conditions: Homo sapiens, T47D, 96-hours of incubation, read-out: Cell Growth, IC50

Structure (SMILES) | IC50 [µM]
C/C(=N\NC(=O)c1ccccc1)c1cc(Cl)ccc1O [Compound 11] | 0.352
C/C(=N\NC(=O)c1cccc(S(=O)(=O)N(C)C)c1)c1cc(Cl)ccc1O [Compound 18] | 0.565
